The results in this text go back to publication PMC5688156, “The natural product carolacton inhibits folate-dependent C1 metabolism by targeting FolD/MTHFD” (Nature Communications, 2017).

The target in the assay is E. coli ΔtolC FolD, reductively lysine-methylated (ecFolD^Meth) (E. coli) (UniProt P24186). Nature of the assay: crystal structure; apo ecFolD^Meth crystals, sitting drop vapour diffusion at 18 °C, space group P2_(1), 1.9 Å; four monomers in the asymmetric unit.

Take “E. coli ΔtolC FolD, reductively lysine-methylated (ecFolD^Meth) (from UniProt P24186 1-288) (enzyme)”: the stoichiometry N turned out to be 2.

One may read the stoichiometry N as the number of molecules, sites or subunits per partner or assembly.
